## Apparent affinities of Ab-14 variants for a coronavirus HR2 peptide

Data: MIT Lincoln Laboratory AlphaSeq set, Li et al. 2023, doi:10.1038/s41467-023-39022-2, as distributed in FLAb.

All variants were tested on one target, the spike HR2 peptide PDVDLGDISGINAS (SARS-CoV-2).

Each scFv is VH, the linker GGGGSGGGGSGGGGS, VL, as in the parent Ab-14, and differs from it in the CDRs of the light chain only.
VH: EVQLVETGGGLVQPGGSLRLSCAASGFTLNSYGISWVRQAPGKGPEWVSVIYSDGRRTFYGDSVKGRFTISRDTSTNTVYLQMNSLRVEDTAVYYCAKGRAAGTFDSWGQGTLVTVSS
VL: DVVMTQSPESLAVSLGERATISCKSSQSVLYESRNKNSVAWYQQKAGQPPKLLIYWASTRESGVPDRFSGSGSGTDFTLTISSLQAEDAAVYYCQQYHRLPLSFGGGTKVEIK

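The parent was found by panning a naive human phage display library on the peptide. These sequences belong to a second round, designed from the earlier measurements on random variants of the parent. Their group label is 14L_GP_Gen (GP: Gaussian process model; Gen: genetic algorithm; a sequence that several methods proposed may carry one label only). The assay is AlphaSeq: two haploid yeast populations carry antibody and antigen on their surface. After mating in shaken culture at 30 °C for 16 h, diploids were selected and their barcode pairs sequenced. Scores were corrected for input abundance and mapped to Kd with protein pairs of known affinity run in the same pool. Mating was done six times.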

Changes read parent residue, position, new residue, counted from the first residue of the VL shown. The read-out is the apparent dissociation constant on a log10 scale (nM): the lower, the stronger. Averages over replicates are reported, and they cover detected replicates only. The authors averaged sequences with at least three values out of six and counted those with two or fewer as poor binders. The range of this assay differs from that of the first round, and the authors advise against merging the two. Empty control strains, which show no peptide, gave a signal in 4% of pairings with all light chain designs; the median was 2.64 and 95% of these signals were weaker than 1.59. No background was subtracted. The control count says in how many pairings with the empty strains this scFv gave a signal, with their mean in brackets.

| # | changes | log10 Kd (nM) by replicate | mean, log10 nM | control signals |
|---|---|---|---|---|
| 1 | S25L S26M V29H W56N T59Q | 0.79 / 0.54 / 0.35 / 0.56 / 0.49 / 0.35 | 0.52 | 0/18 |
| 2 | S25L S33E K36S W56N | 0.29 / 0.25 / 0.04 / 0.04 / 0.12 / 0.27 | 0.17 | 2/18 (2.87) |
| 3 | S25L L30C W56N | 0.53 / 0.74 / 0.45 / 1.04 / 0.63 / 0.47 | 0.64 | 0/18 |
| 4 | S25L S26N W56N | -0.16 / -0.25 / -0.26 / -0.38 / -0.30 / -0.13 | -0.25 | 1/18 (3.08) |
| 5 | S25L V29F S33Q W56S | 0.07 / -0.01 / -0.03 / -0.15 / 0.19 / -0.06 | 0.00 | 0/18 |
| 6 | S25L S26Q V29E W56H E61C | 0.32 / 0.31 / 0.34 / 0.21 / 0.10 / 0.40 | 0.28 | 1/18 (1.52) |
| 7 | S25L S26Q E32Q W56N | 0.04 / -0.14 / -0.19 / -0.28 / -0.11 / -0.05 | -0.12 | 1/18 (2.82) |
| 8 | S25L Q27M V29F W56E | 0.36 / 0.11 / 0.24 / 0.21 / -0.02 / 0.51 | 0.24 | 0/18 |
| 9 | S25L S26P V29G W56Q | 0.09 / -0.16 / -0.21 / -0.27 / -0.06 / 0.03 | -0.10 | 0/18 |
| 10 | S25V S26Y W56N | -0.08 / -0.14 / -0.14 / -0.18 / -0.28 / 0.14 | -0.11 | 1/18 (2.79) |
| 11 | S25L W56N E61C S62M | 0.05 / -0.08 / -0.13 / -0.31 / -0.21 / 0.01 | -0.11 | 2/18 (2.35) |
| 12 | S25L S26Q W56E S62V | -0.23 / -0.40 / -0.48 / -0.36 / -0.45 / -0.24 | -0.36 | 3/18 (2.74) |
| 13 | S25L V29W W56N E61M S62D | 0.23 / 0.00 / -0.07 / -0.23 / -0.03 / -0.10 | -0.03 | 2/18 (1.74) |
| 14 | S25V S28Q V29W W56N | 0.00 / 0.00 / -0.23 / -0.43 / -0.23 / -0.29 | -0.20 | 0/18 |
| 15 | S25V V29Q W56Q | -0.30 / -0.35 / -0.21 / -0.05 / -0.32 / -0.04 | -0.21 | 1/18 (1.96) |
| 16 | K24H S25L V29Q W56N T59Q | 0.22 / 0.33 / 0.52 / 0.38 / 0.29 / 0.43 | 0.36 | 1/18 (2.55) |
| 17 | S25L Q27W V29D W56G | 0.06 / -0.07 / -0.37 / -0.58 / -0.28 / -0.11 | -0.23 | 1/18 (1.21) |
| 18 | S25I L30D W56D | 0.01 / 0.98 / 0.36 / 0.12 / 0.59 / 0.99 | 0.51 | 0/18 |
| 19 | S25L V29E Y31M W56N | -0.26 / -0.25 / -0.31 / -0.26 / -0.25 / -0.30 | -0.27 | 1/18 (2.96) |
| 20 | S25L V29D W56N E61L | 0.23 / 0.07 / 0.05 / 0.18 / 0.20 / 0.40 | 0.19 | 1/18 (2.42) |
| 21 | S25M V29D W56N T59Q | 0.15 / -0.03 / -0.10 / -0.02 / 0.06 / 0.19 | 0.04 | 3/18 (2.64) |
| 22 | S25V S33N W56N | -0.42 / -0.55 / -0.56 / -0.62 / -0.61 / -0.44 | -0.53 | 0/18 |
| 23 | S25L E32G W56N | -0.21 / -0.20 / -0.35 / -0.57 / -0.37 / -0.27 | -0.33 | 1/18 (2.10) |
| 24 | S25M V29W W56N T59Q S62E | -0.22 / -0.30 / -0.16 / -0.41 / -0.35 / -0.09 | -0.25 | 2/18 (2.86) |
| 25 | S25L L30D S38N W56A | 0.11 / 0.15 / 0.12 / 0.78 / 0.12 / 0.00 | 0.21 | 1/18 (1.32) |
| 26 | S25L N37Q W56G | -0.33 / -0.52 / -0.49 / -0.64 / -0.56 / -0.31 | -0.48 | 1/18 (2.57) |
| 27 | K24F S25L V29Q W56N | 0.43 / 0.24 / 0.03 / 0.13 / -0.10 / 0.27 | 0.17 | 0/18 |
| 28 | S25L W56E Q96D S103M | -0.11 / 0.06 / 0.02 / -0.01 / 0.16 / -0.06 | 0.01 | 0/18 |
| 29 | S25V V29E W56N T59Y | 0.36 / 0.05 / 0.02 / 0.10 / 0.25 / 0.29 | 0.18 | 2/18 (2.52) |
| 30 | S25L N35M W56N S62E | -0.40 / -0.47 / -0.53 / -0.71 / -0.58 / -0.44 | -0.52 | 1/18 (2.74) |
| 31 | S25L K36T W56N E61L | 0.16 / -0.12 / -0.31 / -0.27 / -0.25 / -0.25 | -0.17 | 2/18 (2.20) |
| 32 | S25L K36W S38N W56D | -0.45 / -0.61 / -0.60 / -0.62 / -0.65 / -0.35 | -0.55 | 0/18 |
| 33 | S25L L30P W56H E61C | 0.40 / 0.54 / 0.64 / 0.54 / 0.52 / 0.79 | 0.57 | 1/18 (3.29) |
| 34 | S25V V29Q S38A W56N T59Q | 0.24 / 0.01 / 0.05 / 0.04 / 0.03 / 0.15 | 0.09 | 0/18 |
| 35 | S25L V29W L30P W56N E61M | 0.75 / 0.36 / 0.25 / 0.16 / 0.21 / 0.75 | 0.41 | 2/18 (2.12) |
| 36 | S25L K36S W56D T59Q | 0.08 / -0.07 / -0.19 / -0.39 / -0.12 / 0.16 | -0.09 | 0/18 |
| 37 | S25V S33D W56D | -0.30 / -0.19 / -0.40 / -0.40 / -0.55 / -0.15 | -0.33 | 2/18 (2.16) |
| 38 | S25L S26W W56N T59Q | -0.24 / -0.17 / -0.27 / -0.44 / -0.26 / -0.17 | -0.26 | 2/18 (3.32) |
| 39 | S25L W56E E61L Q96D | 0.16 / 0.24 / 0.12 / -0.12 / 0.15 / 0.37 | 0.15 | 1/18 (2.69) |
| 40 | S25L S33Q W56E T59Q | -0.16 / -0.28 / -0.25 / -0.39 / -0.01 / -0.29 | -0.23 | 2/18 (2.83) |
| 41 | S25V V29E W56D | 0.21 / -0.03 / -0.02 / 0.12 / 0.21 / 0.11 | 0.10 | 1/18 (4.17) |
| 42 | S25L V29E L30P W56N | 0.63 / 0.04 / 0.37 / 0.51 / 0.17 / 0.08 | 0.30 | 0/18 |

For reference, 6 entries of the list once more:

changes,log10 Kd (nM) by replicate,"mean, log10 nM",control signals
S25L S26Q V29E W56H E61C,0.32 / 0.31 / 0.34 / 0.21 / 0.10 / 0.40,0.28,1/18 (1.52)
S25V S26Y W56N,-0.08 / -0.14 / -0.14 / -0.18 / -0.28 / 0.14,-0.11,1/18 (2.79)
S25L N37Q W56G,-0.33 / -0.52 / -0.49 / -0.64 / -0.56 / -0.31,-0.48,1/18 (2.57)
S25L V29F S33Q W56S,0.07 / -0.01 / -0.03 / -0.15 / 0.19 / -0.06,0.00,0/18
S25L K36W S38N W56D,-0.45 / -0.61 / -0.60 / -0.62 / -0.65 / -0.35,-0.55,0/18
S25M V29D W56N T59Q,0.15 / -0.03 / -0.10 / -0.02 / 0.06 / 0.19,0.04,3/18 (2.64)